PubChem BioAssay AID595 (National Center for Advancing Translational Sciences (NCATS), 2007)
Hit rate of the full screen: of about 71,000 compounds, about 310 (0.44%) were called active. Listed are the inconclusive results; actives and inactives stand elsewhere. The call rests on the fitted dose curve; in most records, active means well fitted curve in either direction with a large enough effect; inconclusive means small, poorly fitted or top-dose-only effect, or another doubt; inactive means flat fitted curve, though single readings scatter.

Test system: Hsp90 C-terminal peptide / TPR2A (Hop) interaction, human
Assay: qHTS Assay for Disrupters of an Hsp90 Co-Chaperone Interaction
Settings: AlphaScreen TPR2A-His6 binding biotin-Hsp90 C-terminal peptide; activity change, negative = inhibition: at 57 µM (top of the series) unless noted
Text: NIH Chemical Genomics Center [NCGC]
NIH Molecular Libraries Screening Centers Network [MLSCN]
Hsp90 (heat shock protein 90) is the essential molecular chaperone and it accounts for 1-2% of all cytosolic proteins and is critical for the activity of diverse cellular proteins that are involved in a variety of cellular processes, including development, cell cycle, and steroid hormone signaling. Its client proteins include signaling kinases such as IGF1R, Akt, v-Src, Raf-1; regulators of cell survival such as Bcr-Abl; and transcription factors such as mutated p53, estrogen and progesterone receptors. Hsp90 has emerged as an important target for cancer treatment due to its essential role in maintaining transformation and regulating the function of oncogenic signaling proteins.
The in vivo function of Hsp90 is regulated by the binding and hydrolysis of ATP at its N-terminal. Geldanamycin binds to ATP site and inhibit Hsp90 function. Geldanamycin and its analogues are under clinical trials in cancer patients.
This domain contains the binding site for tetratricopeptide repeat (TPR) domains on HOP (Hsp Organizing Protein). TPR is a structural motif used by a significant number of cochaperones by which the in vivo function of Hsp90 is regulated. TPR2A on HOP binds specifically to MEEVD motif of the C-terminal of Hsp90.
A homogeneous AlphaScreen is developed to assess the interaction between TPR2A and MEEVD motif of the C-terminal of Hsp90 by using the isolated TPR2A domain and a synthesized 20mer Hsp90 C terminal peptide. AlphaScreen is two bead-based proximity-dependent chemical energy transfer luminescent assay platform. […]
The assay was performed on 1536-well white plate (untreated solid bottom). […] Plates were read on EnVision (PerkinElmer, Boston, MA).TPR2A-His6 was produced using a bacteria expression system and purified using a well developed method (Ghosh et al., 2000). […] TPR2A-His6 binding to biotin-Hsp90 will bring streptavidin donor beads and nickel chelate acceptor beads (PerkinElmer) together and can be measured by Alpha reading by EnVision (PerkinElmer). […]
On the % scale 0 is the no-effect control and ±100 the full control effect; potency means the concentration at half of the fitted maximal effect.

Row | SMILES | Potency | activity change, negative = inhibition
1 | Clc1n[nH]nc1-c1nn[nH][15n]1 | inconclusive: 25.1 µM | 
2 | O=P1(Nc2ccc(Br)cn2)COc2ccccc2OC1 |  | inconclusive: 44.5%
3 | O=[As]c1ccc(S(=O)(=O)NCCO)cc1 (stereo not drawn) |  | inconclusive: 88.7% [at 11 µM]
